Source: patent publication US20070149439A1, “Pituitary adenylate cyclase-activating polypeptide (PACAP) is an anti-mitogenic signal for selected neuronal precursors in vivo” (priority 2001, published 2007)

Tested on: E15.5 rat cortex
Details: after ICV injection at E15.5, n=4/group; no difference to vehicle (P>0.05)
Source text: For BrdU immunohistochemistry, E15.5 and E18.5 tissues were fixed in 4% PFA, paraffin-embedded, and sectioned (4 μm) coronally. E20.5 tissues were perfusion-fixed in 2% PFA, cryoprotected, and sectioned at 15 μm. The tissues were immunostained. Then, the tissues were double-labeled with antibodies to neuron specific markers TuJ1 (1:200, Biogenesis, Poole, United Kingdom), tau (1:200, I. Fischer, Med. Coll. Penn.) and MAP2c (1:2000, I. Fischer) or glial markers, vimentin (1:4, Roche) and GFAP (1:1000, Sigma), visualizing with Texas Red for BrdU and FITC for phenotypic markers. TUNEL assay was done according to the manufacturer (Oncor, Gaithersburg, Md.) on sections adjacent to those used for BrdU.
Transuterine intracerebroventricular injection. Intraventricular injection was done as described. Following anesthesia (ketamine 30 mg per kg/xylazine 3 mg per kg) and laparotomy of E15.5 pregnant dams, 1 μl of vehicle or factors and 0.05% fast green was delivered into the embryonic lateral ventricle through the uterine wall, using drawn capillary pipettes. Dye enhancement of the ventricles indicated successful injections. After closure, dams were injected subcutaneously with markers of DNA synthesis, [^3H]dT (4 μCi/g, NEN) and BrdU (100 μg/g) at 3 h and sacrificed at 4 h. One embryonic hemisphere was assayed for [^3H]dT incorporation and the other for immunohistochemistry.

Q: With “Pituitary Adenylate Cyclase-Activating Polypeptide [PACAP]” as the substance, how does the TUNEL apoptotic nuclei read?
A: 0.2±0.1 nuclei/section
